This is an account of results in patent publication US7462730B2, “Branched ester composition” (Shell Oil Company, priority 2003, dated 2008).

The conditions of series [1]: room temperature; background statement; cited from earlier work.
Series [2] can be described thus: Solubility experiments: ester mixed with solvents commonly found in personal care formulations.
The mark [3] stands for this setting: 10% Ester/90% Solvent, 23.5° C.

In the case of Isocetyl stearate, in series [1], the “Solubility in nonpolar solvents compared with cetearyl stearate” value is listed as “more soluble”.

As to cetearyl stearate, in series [2] (setting [3]), the “Solubility in Castor Oil” value was “Cloudy solid”, the “Solubility in Dimethylsiloxane” value is given as “White solid” and the “Solubility in Mineral Oil” value is reported as “Cloudy solid”. The “Solubility in the nonpolar solvents” value in series [2] (room temperature) is “precipitates as a solid out of solution”.
